# AlphaSeq binding of Ab-14 light chain variants to a spike HR2 peptide

Reference: Li et al. 2023, doi:10.1038/s41467-023-39022-2. File: FLAb, binding data.

Binding partner: SARS-CoV-2 spike HR2 peptide, sequence PDVDLGDISGINAS.

Ab-14 is the parent antibody, in scFv form: VH, then a (GGGGS)3 linker, then VL. The heavy chain is unchanged in all variants.
VH: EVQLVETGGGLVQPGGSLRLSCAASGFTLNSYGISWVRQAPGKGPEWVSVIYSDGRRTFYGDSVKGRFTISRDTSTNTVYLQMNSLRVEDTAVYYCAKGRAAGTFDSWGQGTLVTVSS
VL: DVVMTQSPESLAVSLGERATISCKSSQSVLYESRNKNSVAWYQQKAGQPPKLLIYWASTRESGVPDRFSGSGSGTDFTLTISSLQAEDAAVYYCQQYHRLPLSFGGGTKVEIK

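Designed CDR sequences, proposed from the first random library and measured here. Group labels follow the data file (Ctrl: baseline library sampled from a position-specific scoring matrix, with some repeated check sequences; Rand: our label for a block that the file lists under HC and that is probably the random mutants of the ten best first-round binders; GP: Gaussian process model; GPLM: also part of the Gaussian process libraries; HC: hill climbing; Gen: genetic algorithm; Gibbs: Gibbs sampling; a sequence that several methods proposed may carry one label only). The assay is AlphaSeq: two haploid yeast populations carry antibody and antigen on their surface. Mating (16 h, 30 °C) was followed by selection of diploids and sequencing of their barcodes. Scores were corrected for input abundance and mapped to Kd with protein pairs of known affinity run in the same pool. The assay was run in six technical replicates.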

Changes read parent residue, position, new residue, counted from the first residue of the VL shown.
Variants here have at most six changes.
Each Kd is an estimate from the mating assay, the geometric mean of the replicates in which the pair was seen; lower is stronger.
Where no diploid with the target was found in any replicate, the entry reads "no signal": below detection, most likely a poor binder, though not proof of it.
In the paper, a design with two or fewer of six values counts as a poor binder.

- S25V+Q27P+V29H+E32W+W56N+S62T [GP_Gibbs] = 2.3 nM (6 of 6 replicates)
- S25C+S28H [Ctrl] = 210 nM (3 of 6 replicates)
- S25V+S26E+S38A+W56Q+A57G+S103H [GP_Gibbs] = 870 pM (6 of 6 replicates)
- S25L+S26Q+K36P+W56N+E61L [GP_Gen] = 910 pM (6 of 6 replicates)
- K24H+Q27P+L30P+W56N+S62D+Q96D [GP_HC] = 1.3 nM (6 of 6 replicates)
- Q27I+V29Y+Y31Q+W56E [GP_HC] = 960 pM (6 of 6 replicates)
- S26G+S28G+N35A+W56G [GP_HC] = 1.9 nM (6 of 6 replicates)
- S25L+S26Q+W56N+T59Q+Q96D [GP_Gen] = 530 pM (6 of 6 replicates)
- S25G+K36T+A40S [Ctrl] = no signal (0 of 6 replicates)
- S25V+S26M+W56N+T59Q [GP_Gen] = 480 pM (6 of 6 replicates)
- L30D+Y31Q+W56D [GP_HC] = 730 pM (6 of 6 replicates)
- A57K+E61F+Y97A [Ctrl] = no signal (0 of 6 replicates)
- K24F+S26L+V29Q+K36F+W56H+S62D [GP_HC] = 8.4 nM (6 of 6 replicates)
- S25F+S26G+S38C+S58T+S103G [Ctrl] = 160 nM (5 of 6 replicates)
- V29H+W56G [Ctrl+GPLM_HC] = 2.0 nM (12 of 12 replicates)
- S25V+L30K+Y31M+W56D [GP_HC] = 1.3 nM (6 of 6 replicates)
- R34T+N35C+W56N+R99E [Ctrl] = 32 nM (6 of 6 replicates)
- S25L+S26N+W56N [GP_Gen] = 570 pM (6 of 6 replicates)
- S25V+W56N [Ctrl+GP_Gen] = 850 pM (12 of 12 replicates)
- V29W+K36R+W56G+T59Y [Rand] = 780 pM (6 of 6 replicates)
- K24H+S25L+S28V+W56N+Q95G [GP_HC] = 180 nM (4 of 6 replicates)
- S25L+Q27G+V29M+W56N [GP_Gen] = 440 pM (6 of 6 replicates)
- S25L+S26E+V29E+W56E+T59Q [GP_Gen] = 690 pM (6 of 6 replicates)
- Y31A+Q96M+Y97H [Ctrl] = 240 nM (1 of 6 replicates)
- W56S+A57D [Ctrl] = 13 nM (6 of 6 replicates)
- S25L+S26Q+L30H+W56N [GP_Gen] = 1.2 nM (6 of 6 replicates)
- S25L+V29F+N35M+W56N+T59Q [GP_Gen] = 1.2 nM (6 of 6 replicates)
- S25L+V29D+W56N+E61C [GP_Gen] = 490 pM (6 of 6 replicates)
- S26Q+S38N+W56E+S62D [GP_HC] = 660 pM (6 of 6 replicates)
- V29W+L30W+Y31P+A57G [Ctrl] = 5.5 nM (6 of 6 replicates)
- S25L+W56D+Q95Y [GP_HC] = 5.5 nM (6 of 6 replicates)
- S62D+H98A [Ctrl] = 16 nM (6 of 6 replicates)
- S25Q+R34S+S38Q+W56D [GP_HC] = 3.9 nM (6 of 6 replicates)
- K24L+S25F+W56S+R99M [Ctrl] = 1.1 nM (6 of 6 replicates)
- S25Q+W56D+P101M [Rand] = 370 pM (6 of 6 replicates)
- S25L+S26M+V29N+W56N [GP_Gen] = 830 pM (6 of 6 replicates)
- S25L+S26Y+V29M+W56N+T59L+Q96C [GP_Gibbs] = 14 nM (2 of 6 replicates)
- S25L+V29D+N35M+W56N+E61M [GP_Gen] = 1.6 nM (6 of 6 replicates)
- S25M+S33D+R34L+W56G [Ctrl] = no signal (0 of 6 replicates)
- S25Y+S26Y+Q27P+V29Y+W56H [GP_HC] = 3.0 nM (6 of 6 replicates)
- S25L+S33E+K36P+W56N+T59Q [GP_Gen] = 760 pM (6 of 6 replicates)
- S25L+V29E+W56E+E61C+S62D [GP_Gen] = 780 pM (6 of 6 replicates)
- S25L+V29M+W56N+E61C [GP_Gen] = 1.2 nM (6 of 6 replicates)
- Q27C+W56D+A57G [Ctrl] = 810 pM (6 of 6 replicates)
- S25M+Y31F+S33W+W56D+S62W [GP_HC] = 3.1 nM (6 of 6 replicates)
- S25L+S28L+Y31M+W56N [GP_Gen] = 1.4 nM (6 of 6 replicates)

The 4 strongest on average among those seen in every replicate, once more:

- S25Q+W56D+P101M [Rand] -> 370 pM (6 of 6 replicates)
- S25L+Q27G+V29M+W56N [GP_Gen] -> 440 pM (6 of 6 replicates)
- S25V+S26M+W56N+T59Q [GP_Gen] -> 480 pM (6 of 6 replicates)
- S25L+V29D+W56N+E61C [GP_Gen] -> 490 pM (6 of 6 replicates)

Of ten entries with the parent sequence, four were seen in most replicates (averages 2.2 nM to 240 nM), three in one and three in none, so single entries are noisy.
A sequence that the file lists under several names has all its replicates pooled.
Background: pairings of all light chain designs with three empty control strains gave a value in 4% of cases (median 430 nM, 5th percentile 38 nM). Values in that range, when seen in few replicates, are hard to tell from nonspecific mating.
Values of this round are not directly comparable with the first-round values of the same sequences.